The source of these data is the NIST ThermoML archive (doi:10.1021/je030165y).

In general, refractive index refers to the speed of light in vacuum divided by its phase velocity in the sample.

The nature of the series: refractive index (Na D-line) (dimensionless). The settings on record: 298.15 K; 101.33 kPa; Liquid; Standard Abbe refractometry.

SMILES strings stand for the structures. ± gives the expanded uncertainty stated by the source.

Turning to `CCCCOCCCC` [dibutyl ether], the refractive index amounted to 1.397 ± 0.0008.
